Compound activity (PubChem)
Only some compounds are listed: those with a hit (about 2.8% of all), similar ones and a draw of the others.
MITF act – increases MITF-driven TRPM1 promoter luciferase signal; SK-MEL-5 TRPM1-promoter luciferase, 24 h; % of positive control, neutral wells = 0; activation, % at 12.5 µM; 300,000 compounds, 0.75% hits; AID 588334;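 active = mean activation of at least 80% with every replicate also reaching 80%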;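 note: 0% = neutral control wells and 100% = parthenolide positive control wells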
Yeast UUG start – modulators of start codon recognition fidelity in yeast; AID 602363; activity score, % at 18.7 µM; S. cerevisiae UUG-firefly luciferase reporter, luminescence/redox ratio; 0.13% of 350,000 active;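 active = replicate mean at a twofold rise or more, about +100% in these data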;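 note: firefly luciferase made from a UUG start codon reports start codon fidelity; reporter light over untreated wells divided by growth signal over untreated wells; some hits fall short of that in this replicate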
Wnt bcat act – activators of Wnt/beta-catenin signaling | activation, % at 9.35 µM | AID 743398 | 300,000 compounds, 1.2% hits | Wnt/beta-catenin reporter cell assay, activator, plate reader; in the data active = activation above about 30%, passing the limit was not always enough;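 note: 0% = neutral control wells and 100% = positive control wells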
esBAF inh – inhibitors of esBAF chromatin remodeling in mouse ES cells. Bmi1-luciferase knock-in reporter, 24 h; 100% = twice the neutral-well signal. reporter increase, % at 12.5 µM. 350,000 compounds, 2% hits; in the data active = activation above about 40%;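 note: 0% = median of the plate's neutral control wells and 100% = double that signal; a rise in the Bmi1 reporter signal indicates esBAF inhibition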
miR122 inh – blocks miR-122 activity in Huh7 sensor cells; Huh7 miR-122 Renilla luciferase sensor, 48 h; neutral wells = 0, positive control = 100; AID 602342; 340,000 compounds, 0.3% hits; activation (reporter increase), % at 12.5 µM;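 active = mean replicate activation score at least 90 and every replicate individually at or above 90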;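 note: higher luciferase means less miR-122 activity so hits act as miR-122 inhibitors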
PglD DTNB – blocks C. jejuni PglD acetyltransferase activity; purified PglD enzyme, DTNB colorimetric CoA detection; inhibition, % at 12.5 µM; 360,000 compounds, 0.098% hits; AID 602405; in the data active = inhibition above about 16%, passing the limit was not always enough
Active calls of the source: *; . = no result given; [ ] = dose if it differs, or a comment.

Short keys: A = MITF act; B = Yeast UUG start; C = Wnt bcat act; D = esBAF inh; E = miR122 inh; F = PglD DTNB
CCC(NC(=O)c1cc(COc2ccc(Cl)cc2OC)on1)c1ccncc1 (centres undefined)
  A = 78; B = 11; C = 22; D = 68*; E = -6; F = 0

CCC(NC(=O)c1cc(COc2ccc(OC)cc2Cl)on1)c1ccncc1 (centres undefined)
  A = 50; B = -12; C = 19; D = 47*; E = -1; F = 2

COc1ccc(OCc2cc(C(=O)NC(C)c3nc(C)cs3)no2)c(Cl)c1 (centres undefined)
  A = .; B = -8; C = 1; D = 61*; E = 2; F = 0

CCC(NC(=O)c1cc(COc2cc(C)c(Cl)c(C)c2)on1)c1ccncc1 (centres undefined)
  A = 4; B = -13; C = -1; D = 1; E = -1; F = 1

COc1cc(Cl)ccc1OCc1cc(C(=O)NC(C)Cc2cnccn2)no1 (centres undefined)
  A = 88*; B = -4; C = 47*; D = 67*; E = 0; F = -1

C[C@H](CO)N1C[C@H](C)[C@@H](CN(C)S(=O)(=O)c2cn(C)cn2)Oc2ccc(NC(=O)Cc3ccccc3)cc2CC1=O
  A = .; B = 11; C = .; D = 2; E = 0[16.7 µM]; F = 1

COc1ccc(CN(C)C[C@@H]2Oc3ccc(NC(=O)NC4CCCCC4)cc3CC(=O)N([C@H](C)CO)C[C@H]2C)cc1
  A = .; B = .; C = .; D = 3; E = -7[16.7 µM]; F = 2

O=C(c1ccccn1)N1C[C@H]2[C@@H](c3ccccc31)[C@@H](CO)N2C(=O)Cc1ccccc1
  A = .; B = -14; C = .; D = 2; E = 9[16.7 µM]; F = -1

CN(C(=O)c1ccco1)c1nc(-c2ccc(F)cc2)cs1
  A = 80*; B = -20; C = 0; D = 27; E = 1; F = 3

O=C(c1ccco1)N(CCCN1CCOCC1)c1nc(-c2ccc(F)cc2)cs1
  A = 4; B = 1; C = .; D = -5; E = 2; F = 0

COc1ccc(-c2nnc(N(C)C(=O)c3ccco3)s2)cc1OC
  A = 29; B = -10; C = 0; D = 10; E = .; F = 1

CN(C(=O)c1ccco1)c1nnc(-c2ccc(F)cc2)s1
  A = 100*; B = 7; C = 7; D = 58*; E = .; F = -4

CC=Cc1ccc2n(c1=O)C[C@H]1[C@H](CO)[C@@H](C(=O)N3CCCCC3)N(C(=O)CC)[C@@H]21 (mixture of isomers)
  A = .; B = .; C = .; D = -4; E = .; F = 4

CN1CCc2c(sc3c2C(=O)NC(c2cccc(OC(=O)c4cccs4)c2)N3)C1 (centres undefined)
  A = .; B = -17; C = 14; D = 42*; E = -3; F = -5

CN1CCc2c(sc3c2C(=O)NC(c2ccco2)N3)C1 (centres undefined)
  A = 9; B = -18; C = .; D = 4; E = -2; F = -4

Cc1ccc(/C=N/c2sc3c(c2C#N)CCC3)s1
  A = 92*; B = -25; C = 5; D = 29; E = 7; F = 0

Cc1ccc(/C=N/c2sc3c(c2C#N)CCCCC3)o1
  A = 25; B = -16; C = .; D = 4; E = -5; F = 6

CN1CCN(/C=N/c2sc3c(c2C#N)CCCCC3)CC1
  A = 66; B = -8; C = .; D = 81*; E = -6; F = -9

CCN(/C=N/c1sc2c(c1C#N)CCCCC2)CC
  A = 60; B = -2; C = .; D = .; E = 10; F = -6

O=C(C[C@H]1CC[C@H]2[C@@H](COC[C@H](O)CN2Cc2cccc(Cl)c2)O1)Nc1nccs1
  A = .; B = .; C = .; D = -6; E = -1[16.7 µM]; F = 2

C/C=C/c1cccc(-c2nc(C(=O)NCc3ccncc3)cc3c2[C@H](CCO)N([S@@](=O)C(C)(C)C)C3)c1
  A = .; B = .; C = .; D = -9; E = .; F = 5

C[C@H](CO)N1C[C@H](C)[C@H](CN(C)C(=O)CCC(F)(F)F)OCCCC[C@H](C)Oc2ccc(NC(=O)Nc3ccccc3)cc2C1=O
  A = .; B = 17; C = .; D = 2; E = -1[16.7 µM]; F = -1

Clc1cc(Br)ccc1OCCN1CCOCC1
  A = -2; B = -7; C = -1; D = .; E = -1; F = -4

CCCCCOc1ccc(CN2CCOCC2)cc1Cl
  A = .; B = -10; C = 14; D = 50*; E = -8; F = 2

Cc1ccc(OCCn2nc3ccccc3n2)c(C)c1
  A = .; B = 2; C = 26; D = 55*; E = -3; F = 1

Carrying on:
Short keys: A = MITF act; B = Yeast UUG start; C = Wnt bcat act; D = esBAF inh; E = miR122 inh; F = PglD DTNB
CCOc1ccccc1OCCn1nc2ccccc2n1
  A = .; B = -10; C = 0; D = 13; E = 4; F = -1

C[C@@H]1CN([C@@H](C)CO)C(=O)c2cc(NC(=O)c3ccncc3)ccc2O[C@@H](C)CCCCO[C@@H]1CN(C)C(=O)Nc1cccc2ccccc12
  A = .; B = 17; C = .; D = 3; E = 6[16.7 µM]; F = -1

C[C@@H]1CN([C@@H](C)CO)C(=O)c2cc(NC(=O)c3ccccc3)ccc2O[C@@H](C)CCCCO[C@H]1CN(C)C(=O)NC1CCCCC1
  A = .; B = 8; C = .; D = -1; E = -5[16.7 µM]; F = 1

CCOc1ccccc1C(=O)N1CCN(c2cccc(Cl)c2)CC1
  A = -49; B = 15; C = .; D = -3; E = 139*; F = -2

Some entries already given, limited to Yeast UUG start.
SMILES,Yeast UUG start
C[C@@H]1CN([C@@H](C)CO)C(=O)c2cc(NC(=O)c3ccncc3)ccc2O[C@@H](C)CCCCO[C@@H]1CN(C)C(=O)Nc1cccc2ccccc12,17
C[C@@H]1CN([C@@H](C)CO)C(=O)c2cc(NC(=O)c3ccccc3)ccc2O[C@@H](C)CCCCO[C@H]1CN(C)C(=O)NC1CCCCC1,8
